Here are results for one compound from EP0863156A1 (American Cyanamid Company, priority 1997, dated 1998).

By UniProt entry, the sequences of proteins in these tests, tags left out.
UniProt P30680, whole entry: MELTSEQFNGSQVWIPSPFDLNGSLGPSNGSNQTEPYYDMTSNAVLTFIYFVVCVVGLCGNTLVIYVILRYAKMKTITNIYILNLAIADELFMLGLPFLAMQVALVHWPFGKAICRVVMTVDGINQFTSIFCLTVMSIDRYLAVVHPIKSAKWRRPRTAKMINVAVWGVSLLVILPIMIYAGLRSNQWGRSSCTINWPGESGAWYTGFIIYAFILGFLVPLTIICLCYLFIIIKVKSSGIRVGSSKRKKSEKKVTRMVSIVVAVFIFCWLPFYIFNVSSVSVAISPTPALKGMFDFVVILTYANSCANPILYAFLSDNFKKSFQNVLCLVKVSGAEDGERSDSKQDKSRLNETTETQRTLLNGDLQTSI

Molecules are shown by their SMILES.

The target of this assay is SSTR2 (Rattus norvegicus, UniProt P30680). Nature of the assay: cAMP accumulation in forskolin-stimulated GH4C1/SSTR2 cells (SPA radioimmunoassay). Type of assay: cell-based. Particulars: cAMP level, dose response of SRIF agonist + 10 µM peptide 1, forskolin stimulated cells. A general note: Changes in cAMP serve as a functional read-out for many G protein-coupled receptors.

For the compound `C[C@H](N)C(=O)NCC(=O)N[C@H]1CSSC[C@@H](C(=O)O)NC(=O)[C@H](CO)NC(=O)[C@H]([C@@H](C)O)NC(=O)[C@H](Cc2ccccc2)NC(=O)[C@H]([C@@H](C)O)NC(=O)[C@H](CCCCN)NC(=O)[C@H](Cc2c[nH]c3ccccc23)NC(=O)[C@H](Cc2ccccc2)NC(=O)[C@H](Cc2ccccc2)NC(=O)[C@H](CC(N)=O)NC(=O)[C@H](CCCCN)NC1=O`, the Maximum was 8.281 and the Minimum turned out to be 2.883.
